In test [1] the target is Sodium-dependent serotonin transporter (Homo sapiens, UniProt P31645). Put plainly: biochemical. Type of test: cell-based, HEK293.
The target of test [2] is 3',5'-cyclic-AMP phosphodiesterase 4D (Homo sapiens, UniProt Q08499). Put plainly: Inhibition of human recombinant PDE4D3.

Chains of the proteins cited; added tags and fusions are not shown. Lines headed by an entry give the natural chain unless they say otherwise; changes in a name come on top.
UniProt P31645, whole entry: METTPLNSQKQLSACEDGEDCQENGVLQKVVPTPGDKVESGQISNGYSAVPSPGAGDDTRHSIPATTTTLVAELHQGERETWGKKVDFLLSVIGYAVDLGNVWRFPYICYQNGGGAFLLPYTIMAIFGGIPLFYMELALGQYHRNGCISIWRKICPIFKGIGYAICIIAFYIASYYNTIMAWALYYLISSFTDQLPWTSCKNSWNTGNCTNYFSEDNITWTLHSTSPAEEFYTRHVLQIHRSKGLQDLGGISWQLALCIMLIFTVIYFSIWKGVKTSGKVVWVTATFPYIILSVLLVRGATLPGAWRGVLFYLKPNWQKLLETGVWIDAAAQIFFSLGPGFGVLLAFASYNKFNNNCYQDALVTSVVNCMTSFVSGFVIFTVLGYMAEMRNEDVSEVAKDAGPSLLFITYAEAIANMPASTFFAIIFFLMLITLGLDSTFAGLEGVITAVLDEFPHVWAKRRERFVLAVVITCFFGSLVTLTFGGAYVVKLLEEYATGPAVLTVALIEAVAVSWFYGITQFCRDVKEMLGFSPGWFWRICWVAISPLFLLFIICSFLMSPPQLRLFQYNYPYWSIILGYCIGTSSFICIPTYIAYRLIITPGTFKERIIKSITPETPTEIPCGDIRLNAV
UniProt Q08499: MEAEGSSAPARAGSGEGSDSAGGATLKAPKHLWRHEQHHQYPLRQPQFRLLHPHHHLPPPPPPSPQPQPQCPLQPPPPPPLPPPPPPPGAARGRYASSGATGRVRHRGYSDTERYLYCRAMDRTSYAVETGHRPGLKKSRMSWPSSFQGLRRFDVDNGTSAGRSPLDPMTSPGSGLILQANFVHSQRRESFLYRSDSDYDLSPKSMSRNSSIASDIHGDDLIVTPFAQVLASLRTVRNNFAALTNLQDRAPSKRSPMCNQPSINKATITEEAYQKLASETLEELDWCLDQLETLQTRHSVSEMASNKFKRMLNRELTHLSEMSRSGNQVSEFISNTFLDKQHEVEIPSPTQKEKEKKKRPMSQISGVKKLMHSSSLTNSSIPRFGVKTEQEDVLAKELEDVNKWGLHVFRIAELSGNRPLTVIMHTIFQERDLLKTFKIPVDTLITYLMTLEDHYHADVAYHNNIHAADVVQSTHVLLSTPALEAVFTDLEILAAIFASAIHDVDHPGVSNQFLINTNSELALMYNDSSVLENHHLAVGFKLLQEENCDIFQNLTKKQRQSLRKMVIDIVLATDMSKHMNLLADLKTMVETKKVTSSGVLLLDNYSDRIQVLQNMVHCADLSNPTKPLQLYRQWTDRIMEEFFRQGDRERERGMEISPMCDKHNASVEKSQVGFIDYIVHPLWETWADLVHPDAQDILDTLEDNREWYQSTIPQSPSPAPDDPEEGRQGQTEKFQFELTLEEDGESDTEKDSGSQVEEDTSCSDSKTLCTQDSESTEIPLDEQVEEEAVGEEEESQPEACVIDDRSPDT

Molecules are shown by their SMILES.

On to `COc1ccc(F)c(CCCC2CCC(CCNCCCCCN3N=C(c4ccc(OC)c(OC)c4)[C@H]4CC=CC[C@H]4C3=O)O2)c1` (mixture of isomers), for which the affinity in test [1] corresponds to a Ki of 194 nM.

`COc1ccc(C2=NN(CCCCCBr)C(=O)[C@@H]3CC=CC[C@H]23)cc1OC` (racemic): in test [2], the inhibitory constant (Ki) was determined as 2.3 nM.

Broadly, the Ki is the equilibrium dissociation constant of an inhibitor or competing ligand from its target.

Source of the values: ChEMBL document CHEMBL1152805, “Dual inhibitors of phosphodiesterase-4 and serotonin reuptake” (J Med Chem, 2009).
